pKi: −log10 of the molar value.
Target: D(2) dopamine receptor (Homo sapiens, UniProt P14416)

Amino acid sequences for entries named in this document (tags omitted).
UniProt P14416, whole entry: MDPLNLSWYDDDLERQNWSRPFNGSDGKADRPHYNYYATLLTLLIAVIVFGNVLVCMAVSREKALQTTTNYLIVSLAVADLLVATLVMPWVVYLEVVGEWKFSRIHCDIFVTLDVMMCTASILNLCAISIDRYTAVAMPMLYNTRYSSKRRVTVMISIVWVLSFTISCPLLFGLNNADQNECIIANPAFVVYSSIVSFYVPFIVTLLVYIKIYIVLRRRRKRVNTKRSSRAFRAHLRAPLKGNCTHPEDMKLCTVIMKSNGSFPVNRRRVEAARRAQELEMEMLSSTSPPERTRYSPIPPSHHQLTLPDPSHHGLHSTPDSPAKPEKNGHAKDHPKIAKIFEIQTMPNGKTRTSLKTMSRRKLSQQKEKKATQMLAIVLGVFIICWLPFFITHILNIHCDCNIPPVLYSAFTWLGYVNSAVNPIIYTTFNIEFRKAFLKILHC

Question: How did the pKi turn out when `CN1CCc2cc(Cl)c(O)cc2[C@H]2c3ccccc3CC[C@@H]21` [ECOPIPAM] was run?
Answer: The pKi was 5.91.
